Laboratory results from ChEMBL document CHEMBL1153221, “The identification of structurally novel, selective, orally bioavailable positive modulators of mGluR2” (Bioorg Med Chem Lett, 2010).

Sequences of proteins named here, by UniProt entry; tags and fusion partners are left off. A change or cut given only in a name is not applied to a line headed by its entry.
UniProt Q14416: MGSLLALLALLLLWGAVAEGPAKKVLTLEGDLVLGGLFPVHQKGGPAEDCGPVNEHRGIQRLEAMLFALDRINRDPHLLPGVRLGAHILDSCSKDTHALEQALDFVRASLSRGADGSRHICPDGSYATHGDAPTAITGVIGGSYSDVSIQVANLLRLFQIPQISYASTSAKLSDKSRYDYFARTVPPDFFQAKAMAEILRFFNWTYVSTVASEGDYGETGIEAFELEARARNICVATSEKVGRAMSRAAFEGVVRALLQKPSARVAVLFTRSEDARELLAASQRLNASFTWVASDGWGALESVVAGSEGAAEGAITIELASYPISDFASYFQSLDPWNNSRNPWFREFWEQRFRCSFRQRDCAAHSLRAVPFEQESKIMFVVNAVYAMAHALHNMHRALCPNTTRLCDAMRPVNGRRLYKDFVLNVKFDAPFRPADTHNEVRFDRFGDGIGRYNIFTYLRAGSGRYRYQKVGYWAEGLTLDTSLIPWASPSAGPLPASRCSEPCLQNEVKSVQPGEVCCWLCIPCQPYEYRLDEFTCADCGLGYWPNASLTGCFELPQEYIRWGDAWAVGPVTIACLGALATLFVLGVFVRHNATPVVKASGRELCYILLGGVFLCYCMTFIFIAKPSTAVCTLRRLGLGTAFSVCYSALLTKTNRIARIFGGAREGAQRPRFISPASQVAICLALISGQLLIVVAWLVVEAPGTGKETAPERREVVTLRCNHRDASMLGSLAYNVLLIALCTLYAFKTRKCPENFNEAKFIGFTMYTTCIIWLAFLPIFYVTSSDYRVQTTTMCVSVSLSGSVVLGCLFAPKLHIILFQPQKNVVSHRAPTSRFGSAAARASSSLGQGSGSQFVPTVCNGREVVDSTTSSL
UniProt P35462, whole entry: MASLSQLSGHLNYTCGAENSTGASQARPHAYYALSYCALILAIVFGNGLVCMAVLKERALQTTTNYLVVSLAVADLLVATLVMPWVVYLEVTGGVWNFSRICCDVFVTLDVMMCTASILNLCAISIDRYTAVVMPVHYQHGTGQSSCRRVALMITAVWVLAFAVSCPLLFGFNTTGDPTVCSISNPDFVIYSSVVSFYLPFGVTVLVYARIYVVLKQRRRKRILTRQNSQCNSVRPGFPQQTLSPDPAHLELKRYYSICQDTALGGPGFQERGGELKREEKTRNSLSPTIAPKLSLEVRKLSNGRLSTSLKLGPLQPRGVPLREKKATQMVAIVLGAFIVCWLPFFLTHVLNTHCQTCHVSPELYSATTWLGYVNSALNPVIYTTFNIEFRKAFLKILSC

How the values were obtained:
[1] = target: Metabotropic glutamate receptor 2 (Homo sapiens, UniProt Q14416); test: Positive modulation of human mGluR2 expressed in CHO cells co-expressing Ga16 G-protein assessed as glutamate-induced response by FLIPR assay relative to glutamate; type: cell-based
[2] = target: D(3) dopamine receptor (Homo sapiens, UniProt P35462); test: Antagonist activity at human D3 receptor expressed in CHO cells co-expressing G0 by [35S]GTPgammaS binding assay; type: functional, cell-based

- Emax [1]: 91%
- pKi [2]: 7.00
Compound: Cn1c(CN2CCC(c3ccccc3F)CC2)nc2ccccc21

pKi: −log10 of the molar value.
